The chains behind the UniProt entries cited, without tags or fusion partners.
UniProt O14649, whole entry: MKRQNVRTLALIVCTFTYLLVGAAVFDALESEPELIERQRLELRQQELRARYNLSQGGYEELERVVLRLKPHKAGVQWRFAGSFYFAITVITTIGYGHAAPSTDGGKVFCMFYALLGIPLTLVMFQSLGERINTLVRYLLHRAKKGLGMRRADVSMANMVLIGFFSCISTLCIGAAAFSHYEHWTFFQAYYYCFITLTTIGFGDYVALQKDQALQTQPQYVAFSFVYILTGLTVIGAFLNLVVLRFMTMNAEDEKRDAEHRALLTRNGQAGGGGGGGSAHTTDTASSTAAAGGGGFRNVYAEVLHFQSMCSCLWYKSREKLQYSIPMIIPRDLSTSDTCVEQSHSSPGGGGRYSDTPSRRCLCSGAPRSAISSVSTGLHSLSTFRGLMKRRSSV

The entries are a selection whose mix differs from that of the whole data set. Calls of active or inactive are those of the source.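 The calls were made as follows: active = ratio percent of control, averaged over triplicates, above buffer control mean plus 5 SD (cut at about 64% in these data); inactive = the rest.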
Each molecule was assayed against Potassium channel subfamily K member 3 (Homo sapiens) (UniProt O14649) (assay: retest of human KCNK3 channel inhibitors, confirmation, CHO cells, FluxOR thallium flux, triplicate (AID 651638;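 also: ratio is the fluorescence rise from min to max over baseline after thallium stimulus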)). Settings: FluxOR fluorescence, at 10 µM, stronger effect = higher value, 0% buffer, 100% carvedilol maximal block.
In the case of `CC(C)(C)OC(=O)N1CCC(N(C(=O)c2ccccc2)c2ccc(Cl)cc2)CC1`, the ratio percent of control was active: 101%. With `CC(C)(C)OC(=O)N1CCC(N(C(=O)c2ccccc2)c2ccc(F)cc2)CC1` the ratio percent of control was active: 116%. In the case of `Cc1cc(C)cc(N(C(=O)c2ccccc2)C2CCN(C(=O)OC(C)(C)C)CC2)c1`, the ratio percent of control was active: 92.3%.

From PubChem BioAssay AID651638 (Johns Hopkins Ion Channel Center, 2012)
